The text below walks through data of ChEMBL document CHEMBL1145385, “Functional differences in epigenetic modulators-superiority of mercaptoacetamide-based histone deacetylase inhibitors relative to hydroxamates in cortical neuron neuroprotection studies” (J Med Chem, 2007).

Sequences of proteins named here, by UniProt entry; tags and fusion partners are left off.
UniProt Q92769, whole entry: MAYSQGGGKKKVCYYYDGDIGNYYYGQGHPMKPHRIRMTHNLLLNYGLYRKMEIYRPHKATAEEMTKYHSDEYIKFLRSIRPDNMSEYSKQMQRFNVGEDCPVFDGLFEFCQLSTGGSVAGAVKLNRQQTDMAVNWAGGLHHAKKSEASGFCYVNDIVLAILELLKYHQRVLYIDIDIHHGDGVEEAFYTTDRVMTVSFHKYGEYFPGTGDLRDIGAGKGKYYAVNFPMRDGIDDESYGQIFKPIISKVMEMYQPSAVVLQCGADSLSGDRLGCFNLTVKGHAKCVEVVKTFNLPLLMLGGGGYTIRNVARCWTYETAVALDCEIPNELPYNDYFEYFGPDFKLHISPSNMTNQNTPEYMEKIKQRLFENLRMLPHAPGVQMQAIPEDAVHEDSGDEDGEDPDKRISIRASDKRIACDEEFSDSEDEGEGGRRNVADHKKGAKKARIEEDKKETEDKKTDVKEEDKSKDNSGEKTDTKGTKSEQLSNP

Broadly, the IC50 is the concentration needed to halve the response being measured. Higher therefore signals a need for much substance.

For the experiment, the target named is Histone deacetylase 2 (Homo sapiens, UniProt Q92769). The experiment is described as follows: Inhibition of His-tagged HDAC2 expressed in Sf9 cells by fluorescence-based assay.

In turn, `CN(C)c1ccc(C(=O)NCCCCCNC(=O)CS)cc1` showed an IC50 of 6.46 µM.
